Key:
DNA-PK = DNA-PK (Homo sapiens (Human), UniProt P78527); assay: Z'-LYTE / Adapta kinase assay, DNA-PK; format: biochemical; conditions: read-out: DNA-PK % Inh. @ 100 nM
Description: (§1) The Z′-LYTE® biochemical assay employs a fluorescence-based, coupled-enzyme format and is based on the differential sensitivity of phosphorylated and non-phosphorylated peptides to proteolytic cleavage (FIG. 6). The peptide substrate is labeled with two fluorophores one at each end—that make up a FRET pair. In the primary reaction, the kinase transfers the gamma-phosphate of ATP to a single tyrosine, serine or threonine residue in a synthetic FRET-peptide. In the secondary reaction, a site-specific protease recognizes and cleaves non-phosphorylated FRET-peptides. Phosphorylation of FRET-peptides suppresses cleavage by the Development Reagent. […] A ratiometric method, which calculates the ratio (the Emission Ratio) of donor emission to acceptor emission after excitation of the donor fluorophore at 400 nm, is used to quantitate reaction progress.
(§2) A significant benefit of this ratiometric method for quantitating reaction progress is the elimination of well-to-well variations in FRET-peptide concentration and signal intensities. […]
(§3) Both cleaved and uncleaved FRET-peptides contribute to the fluorescence signals and therefore to the Emission Ratio. The extent of phosphorylation of the FRET-peptide can be calculated from the Emission Ratio. […]

The chains behind the UniProt entries cited, without tags or fusion partners.
UniProt P78527, whole entry: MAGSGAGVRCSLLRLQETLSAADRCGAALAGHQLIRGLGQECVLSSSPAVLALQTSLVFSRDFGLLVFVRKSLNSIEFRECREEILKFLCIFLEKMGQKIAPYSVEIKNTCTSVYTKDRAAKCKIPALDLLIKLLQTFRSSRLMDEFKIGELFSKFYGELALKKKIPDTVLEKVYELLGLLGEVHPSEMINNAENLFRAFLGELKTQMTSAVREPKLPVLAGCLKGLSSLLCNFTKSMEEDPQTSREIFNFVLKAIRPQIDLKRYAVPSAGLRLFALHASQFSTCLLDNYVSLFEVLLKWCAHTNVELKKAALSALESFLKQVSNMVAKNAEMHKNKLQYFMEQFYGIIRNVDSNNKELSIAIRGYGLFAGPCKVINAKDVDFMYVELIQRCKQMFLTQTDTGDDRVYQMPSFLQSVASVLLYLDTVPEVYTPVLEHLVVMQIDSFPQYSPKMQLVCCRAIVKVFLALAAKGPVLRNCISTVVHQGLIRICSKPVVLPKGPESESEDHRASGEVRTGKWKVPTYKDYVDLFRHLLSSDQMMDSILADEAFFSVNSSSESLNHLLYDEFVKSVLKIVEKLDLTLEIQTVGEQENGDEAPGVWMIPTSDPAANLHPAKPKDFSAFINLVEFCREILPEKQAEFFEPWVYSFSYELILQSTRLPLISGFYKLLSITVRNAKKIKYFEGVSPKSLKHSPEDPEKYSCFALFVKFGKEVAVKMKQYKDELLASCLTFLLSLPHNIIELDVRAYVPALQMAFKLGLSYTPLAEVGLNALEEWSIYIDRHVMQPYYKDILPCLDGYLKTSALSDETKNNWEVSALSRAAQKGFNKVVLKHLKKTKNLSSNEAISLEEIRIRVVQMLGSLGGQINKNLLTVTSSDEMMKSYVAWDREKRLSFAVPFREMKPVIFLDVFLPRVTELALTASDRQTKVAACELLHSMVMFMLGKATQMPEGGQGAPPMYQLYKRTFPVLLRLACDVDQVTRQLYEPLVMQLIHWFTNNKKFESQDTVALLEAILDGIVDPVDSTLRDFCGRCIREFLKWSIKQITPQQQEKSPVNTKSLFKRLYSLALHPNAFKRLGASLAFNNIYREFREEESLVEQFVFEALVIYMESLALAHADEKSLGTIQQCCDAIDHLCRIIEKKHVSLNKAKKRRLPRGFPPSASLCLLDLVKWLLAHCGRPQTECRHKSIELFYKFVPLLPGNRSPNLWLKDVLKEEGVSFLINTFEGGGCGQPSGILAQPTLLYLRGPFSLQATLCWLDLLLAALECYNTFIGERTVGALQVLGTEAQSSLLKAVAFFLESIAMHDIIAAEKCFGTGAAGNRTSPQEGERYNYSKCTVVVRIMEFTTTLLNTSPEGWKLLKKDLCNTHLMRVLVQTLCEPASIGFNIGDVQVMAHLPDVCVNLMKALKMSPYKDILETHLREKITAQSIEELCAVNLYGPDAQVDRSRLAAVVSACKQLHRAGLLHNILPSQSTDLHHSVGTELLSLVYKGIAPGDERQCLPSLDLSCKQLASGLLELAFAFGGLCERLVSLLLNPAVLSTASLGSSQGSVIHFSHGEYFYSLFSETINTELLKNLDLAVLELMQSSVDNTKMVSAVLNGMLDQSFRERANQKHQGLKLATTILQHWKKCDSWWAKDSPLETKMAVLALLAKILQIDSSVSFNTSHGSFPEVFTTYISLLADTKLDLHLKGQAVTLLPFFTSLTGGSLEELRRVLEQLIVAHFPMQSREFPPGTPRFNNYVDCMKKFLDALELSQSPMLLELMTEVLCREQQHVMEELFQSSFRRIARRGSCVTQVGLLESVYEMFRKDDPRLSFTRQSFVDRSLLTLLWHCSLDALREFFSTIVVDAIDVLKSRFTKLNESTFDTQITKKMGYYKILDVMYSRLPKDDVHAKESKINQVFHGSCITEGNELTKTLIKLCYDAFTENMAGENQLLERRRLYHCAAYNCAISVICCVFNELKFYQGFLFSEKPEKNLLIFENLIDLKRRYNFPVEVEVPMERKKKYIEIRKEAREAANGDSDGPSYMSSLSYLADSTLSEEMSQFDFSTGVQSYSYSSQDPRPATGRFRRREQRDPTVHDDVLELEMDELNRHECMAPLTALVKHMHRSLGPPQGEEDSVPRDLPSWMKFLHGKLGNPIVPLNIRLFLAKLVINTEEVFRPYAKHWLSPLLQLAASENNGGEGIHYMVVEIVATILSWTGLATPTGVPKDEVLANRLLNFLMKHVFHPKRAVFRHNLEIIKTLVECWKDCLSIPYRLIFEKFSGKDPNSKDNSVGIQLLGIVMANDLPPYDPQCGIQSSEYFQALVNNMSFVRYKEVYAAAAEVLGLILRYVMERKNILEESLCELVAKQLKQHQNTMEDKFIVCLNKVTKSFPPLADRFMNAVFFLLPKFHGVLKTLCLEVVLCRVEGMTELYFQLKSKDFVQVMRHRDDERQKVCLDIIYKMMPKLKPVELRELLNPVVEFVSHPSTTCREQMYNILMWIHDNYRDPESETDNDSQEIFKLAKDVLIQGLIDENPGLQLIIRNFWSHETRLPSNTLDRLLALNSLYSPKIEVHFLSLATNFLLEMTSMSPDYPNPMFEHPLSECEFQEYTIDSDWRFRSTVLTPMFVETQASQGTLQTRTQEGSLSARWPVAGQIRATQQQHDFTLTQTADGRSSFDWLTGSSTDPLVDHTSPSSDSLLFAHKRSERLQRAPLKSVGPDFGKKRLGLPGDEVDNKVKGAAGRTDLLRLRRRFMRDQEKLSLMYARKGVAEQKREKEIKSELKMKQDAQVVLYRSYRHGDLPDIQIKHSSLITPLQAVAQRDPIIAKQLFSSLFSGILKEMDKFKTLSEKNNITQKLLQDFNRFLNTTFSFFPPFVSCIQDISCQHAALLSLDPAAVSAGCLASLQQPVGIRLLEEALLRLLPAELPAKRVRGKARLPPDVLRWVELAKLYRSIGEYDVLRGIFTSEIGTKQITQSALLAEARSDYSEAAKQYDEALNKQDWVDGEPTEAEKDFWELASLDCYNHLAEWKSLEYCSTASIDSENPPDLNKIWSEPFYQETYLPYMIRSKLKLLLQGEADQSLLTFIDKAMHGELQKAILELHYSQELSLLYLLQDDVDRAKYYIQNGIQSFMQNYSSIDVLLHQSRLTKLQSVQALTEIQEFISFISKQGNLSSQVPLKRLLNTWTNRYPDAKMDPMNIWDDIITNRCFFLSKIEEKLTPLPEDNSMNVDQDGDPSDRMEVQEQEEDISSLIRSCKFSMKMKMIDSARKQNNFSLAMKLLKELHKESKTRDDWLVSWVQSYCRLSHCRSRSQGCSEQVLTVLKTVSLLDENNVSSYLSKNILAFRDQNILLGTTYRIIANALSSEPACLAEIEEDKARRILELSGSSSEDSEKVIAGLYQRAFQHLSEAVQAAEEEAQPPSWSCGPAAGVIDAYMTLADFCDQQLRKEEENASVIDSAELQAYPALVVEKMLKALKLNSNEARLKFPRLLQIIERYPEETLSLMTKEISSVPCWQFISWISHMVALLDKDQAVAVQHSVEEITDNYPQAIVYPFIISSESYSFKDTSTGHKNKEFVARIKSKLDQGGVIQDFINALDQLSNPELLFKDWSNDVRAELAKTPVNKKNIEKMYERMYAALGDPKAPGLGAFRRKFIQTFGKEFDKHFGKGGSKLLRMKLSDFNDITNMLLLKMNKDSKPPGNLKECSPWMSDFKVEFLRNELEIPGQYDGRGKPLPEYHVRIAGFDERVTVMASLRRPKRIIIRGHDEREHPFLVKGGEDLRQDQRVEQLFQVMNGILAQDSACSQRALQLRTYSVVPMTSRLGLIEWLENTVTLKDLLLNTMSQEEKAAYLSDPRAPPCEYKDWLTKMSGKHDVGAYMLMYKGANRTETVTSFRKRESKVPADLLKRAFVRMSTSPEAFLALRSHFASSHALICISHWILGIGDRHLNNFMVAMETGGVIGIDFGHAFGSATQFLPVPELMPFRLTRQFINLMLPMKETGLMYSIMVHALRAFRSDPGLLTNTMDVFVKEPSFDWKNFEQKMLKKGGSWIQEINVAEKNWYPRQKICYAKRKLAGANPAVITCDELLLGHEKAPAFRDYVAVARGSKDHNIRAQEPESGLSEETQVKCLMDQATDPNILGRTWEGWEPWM

EGFR = EGFR (Homo sapiens (Human), UniProt P00533); assay: Z'-LYTE / Adapta kinase assay, EGFR; format: biochemical; conditions: read-out: EGFR % Inh. @ 100 nM
Description: as §1, §2, §3

inhibition at 0.1 µM (DNA-PK): > 90%
inhibition at 0.1 µM (EGFR): 10 to 80%
Structure (SMILES): CS(=O)(=O)Nc1cc(-c2ccc3ncc(C#N)c(NC4CCc5ccccc54)c3c2)cnc1Cl (centres unmarked) [Compound 101, N-[2-chloro-5-[3-cyano-4-(indan-1-ylamino)-6-quinolyl]-3-pyridyl]methanesulfonamide]
